# Reference: US9776991B2, “Thienomethylpiperazine derivatives as inhibitors of soluble epoxide hydrolase” (SANOFI, priority 2013, dated 2017)
# The chains behind the UniProt entries cited, without tags or fusion partners.
# UniProt P34913, whole entry: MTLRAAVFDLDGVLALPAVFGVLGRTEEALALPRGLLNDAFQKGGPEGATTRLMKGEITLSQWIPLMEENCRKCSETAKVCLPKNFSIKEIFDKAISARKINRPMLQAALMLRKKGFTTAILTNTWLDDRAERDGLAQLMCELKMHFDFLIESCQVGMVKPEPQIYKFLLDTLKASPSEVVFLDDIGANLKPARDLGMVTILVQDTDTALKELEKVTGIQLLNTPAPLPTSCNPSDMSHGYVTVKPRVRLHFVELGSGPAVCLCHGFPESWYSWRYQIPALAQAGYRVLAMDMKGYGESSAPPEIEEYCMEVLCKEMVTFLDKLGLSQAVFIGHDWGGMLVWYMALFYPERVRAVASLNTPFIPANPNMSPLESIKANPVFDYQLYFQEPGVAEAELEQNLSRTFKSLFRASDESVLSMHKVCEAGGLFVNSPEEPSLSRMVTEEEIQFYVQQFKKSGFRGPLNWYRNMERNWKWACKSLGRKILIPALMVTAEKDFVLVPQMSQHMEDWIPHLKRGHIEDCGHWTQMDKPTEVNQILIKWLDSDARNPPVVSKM
# Target: recombinant sEH (soluble epoxide hydrolase, EPHX2) (Homo sapiens (Human), UniProt P34913)
# Test: biochemical fluorometric sEH inhibition assay with Phome substrate
# Settings: read-out: sEH IC50; recombinant sEH purified from Sf9 insect cells, 2 nM sEH, 5 μM Phome, 60 minutes at 30° C.
# Method: Compounds were tested in a biochemical screening assay using recombinant sEH purified from Sf9 insect cells and an artificial substrate, (3-phenyl-oxiranyl)-acetic acid cyano-(6-methoxy-naphtalen-2-yl)-methyl ester, Phome. The biochemical assay was performed in analogy to a fluorometric described in the literature (P. D. Jones et al., Anal. Biochem. 2005, 343, 66-75). The assay principle bases on the sEH-catalyzed hydrolysis of an artificial α-cyano-ester substrate. O-deacetylation liberates a cyanohydrin intermediate that rapidly decomposes to the highly fluorescent 6-methoxy-2-naphtaldehyde. To discriminate sample autofluorescence, the assay was carried out as a kinetic measurement with two time points. The first measurement is performed immediately before addition of the substrate and the […] measurement is done after completion of the assay. The assay format is either in 96- or in 384-well format.
# Details of the assay using a 96-well plate format are described below. 40 μl recombinant sEH enzyme and 5 μl test compound are pre-incubated for 15 minutes at 30° C. […]
# Fluorescence is measured with any suitable detector for instance a TECAN Safire or Tecan Ultra at […]. % inhibition of recombinant sEH activity is used for calculation of corresponding IC50 values as illustrated and described in the examples. […]
structure (smiles),measurement,value
O=C(NCc1ccc(Cl)cc1Cl)c1cnc(CN2CCN(C(=O)c3ncccc3O)CC2)s1,IC50,83.2 nM
